Biological target: EGFR (Homo sapiens, UniProt P00533)
Test: BLI

B1: nimotuzumab (antibody, V domains shown)
VH: QVQLQQSGAEVKKPGSSVKVSCKASGYTFTNYYIYWVRQAPGQGLEWIGGINPTSGGSNFNEKFKTRVTITADESSTTAYMELSSLRSEDTAFYFCTRQGLWFDSDGRGFDFWGQGTTVTVSS
VL: DIQMTQSPSSLSASVGDRVTITCRSSQNIVHSNGNTYLDWYQQTPGKAPKLLIYKVSNRFSGVPSRFSGSGSGTDFTFTISSLQPEDIATYYCFQYSHVPWTFGQGTKLQIT
  Kd: 0.899 nM
